From PubChem
Compounds with a hit are over-represented: about 16% of the library has one in this group of screens.
uPA generation: inhibitors of cell surface uPA generation; cell surface uPA generation assay, qHTS; Potency, µM (doses to about 38.3 µM), for the others: at the highest dose activity change, negative = inhibition, usual class: inhibitors; 330,000 compounds, 0.31% hits; AID 540303; active = well fitted inhibition curve with a large enough effect; inconclusive = small, poorly fitted or top-dose-only effect; inactive = no such curve, though single readings can be large or run the other way; tested in mouse RAW 264.7 cells; also: potency is read from the fitted curve at half-maximal effect; % is scaled to controls: 0 for no effect and ±100 for the full control effect; nearly all actives have a fitted effect of over 55% in size
TDP1 block: blocks human tyrosyl-DNA phosphodiesterase 1. Q9NUW8. recombinant TDP1, AlphaScreen DNA substrate cleavage. Potency, µM (titrated, usually from 130 µM), without a hit: at the top dose activity change, negative = inhibition, usual class: inhibitors. 350,000 compounds, 0.28% hits. AID 485290; also: potency is read from the fitted curve at half-maximal effect; % is scaled to controls: 0 for no effect and ±100 for the full control effect; nearly all actives have a fitted effect of over 40% in size
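E. coli-derived human Tdp1, 1 nM final. Cpd preinc 15 min RT; substrate 15 nM final, 5 min RT; AS bead mix 10 ug/ml final, 10 min RT. Signal loss = tyrosine-FITC cleavage. No-enzyme wells = max signal.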
DT40 TDP1 CPT: DT40-hTDP1 cell growth loss with CPT. AID 686979. Potency, µM (titrated, usually from 46.2 µM), without a hit: top-dose activity change, negative = growth inhibition, actives largely listed as inhibitors. chicken DT40 Tdp1-/-;hTDP1 cells + 20 nM CPT, ATP luminescence, 48 h. 420,000 compounds, 12% hits; also: potency is read from the fitted curve at half-maximal effect; % is scaled to controls: 0 for no effect and ±100 for the full control effect; nearly all actives have a fitted effect of over 55% in size
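Cell growth measured by CellTiter-Glo luminescence after a minimum 48 h, 37 C compound exposure with 20 nM CPT in Tdp1-knockout DT40 cells stably expressing hTDP1, seeded 400/well; qHTS titration format.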
DT40 TDP1 no CPT: qHTS for Inhibitors of human tyrosyl-DNA phosphodiesterase 1 (TDP1): qHTS in cells in absence of CPT; DT40 Tdp1-/- hTDP1 cells, no CPT, ATP luminescence, 48 h; 420,000 compounds, 15% hits; Potency, µM (titrated, usually from 46.2 µM), for inactives: top-dose activity change, negative = growth inhibition, most hits filed as inhibitors; AID 686978, 2013; also: potency is read from the fitted curve at half-maximal effect; % is scaled to controls: 0 for no effect and ±100 for the full control effect; nearly all actives have a fitted effect of over 55% in size
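DT40 Tdp1-/-;hTDP1 cells, no CPT (DMSO vehicle only), 400 cells/well; compounds pin-transferred; ≥48 hr, 37 °C; CellTiter-Glo 30 min RT dark, luminescence read.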
miR-21 FLuc: miR-21 reporter, rising signal | HeLa miR-21 FLuc reporter, luciferase, 48 h | Potency, µM (top dose mostly 38.3 µM), inactives show at the top dose reporter change, positive = more light | 340,000 tested, under 10 active | AID 2288; active = well fitted rising curve with a large enough effect; inconclusive = small, poorly fitted or top-dose-only effect; inactive = no such curve, though single readings can be large or run the other way;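 further: % of control where 0% means no effect; miR-21 action dims this reporter so a rising signal means less miR-21 action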
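Compounds were titrated across several concentrations (up to approximately 40 uM) and incubated 48 hours with HeLa miR-21-FLuc reporter cells (miR-21 target sequence downstream of FLuc, endogenous miR-21). Readout was firefly luciferase luminescence after lytic detection reagent.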
Numbers without * were called inactive; ? = inconclusive; . = no result; [ ] = another dose, or the depositor's remark. Unless noted, calls follow the shape of the dose curve; as a rule, active = well fitted curve in the direction sought with a large enough effect; inconclusive = small, poorly fitted or top-dose-only effect, or another doubt; inactive = no such curve, though single readings can be large; an effect the other way counts as inactive or inconclusive.

(1) O=C(NCc1ccc2c(c1)OCO2)c1cc(-c2ccccc2)c(N2CCOCC2)s1
(2) CCOc1ccc(CCNC(=O)c2cc(-c3ccccc3)c(N3CCOCC3)s2)cc1OCC
(3) O=C(NCc1ccco1)c1cc(-c2ccccc2)c(N2CCOCC2)s1
(4) CCOc1ccc(CCNC(=O)c2cc(-c3ccccc3)c(N3CCOCC3)s2)cc1
(5) NC(=O)C1CCN(C(=O)COc2cccc3ccccc23)CC1
(6) COc1ccccc1CCNC(=O)NC1CCCCC1

Compound	1	2	3	4	5	6
uPA generation	-3.7%	-6.0%	-1.3%	1.0%	2.6%	4.7%
DT40 TDP1 no CPT	20.6µM*	3.26µM*	-11.0%	29.1µM*	?	6.5%
miR-21 FLuc	3.1%	27.4%	-0.3%	.	-5.2%	-40.5%
TDP1 block	3.5%	7.3%	9.0%	.	0.5%	2.7%
DT40 TDP1 CPT	?	?	-1.1%	?	-26.0%	-9.5%

(7) COc1ccc2nc(Nc3nc(C)c(C(C)=O)s3)sc2c1
(8) CCOC(=O)c1[nH]c2ccc(OC)cc2c1NC(=S)N1CCN(c2ccccc2OC)CC1
(9) CCOC(=O)c1sc(Nc2nc3c(OC)cccc3s2)cc1C
(10) COc1ccc(Nc2nc3ccc(OC)cc3s2)cc1
(11) CCOC(=O)c1[nH]c2ccc(OC)cc2c1NC(=O)OC
(12) CCOC(=O)Nc1c(C(=O)OC)[nH]c2cc(OC)ccc12

Compound	7	8	9	10	11	12
uPA generation	-12.0%	-16.0%	-2.3%	-8.0%	3.2%	-8.8%
DT40 TDP1 no CPT	16.4µM*	8.2µM*	16.4µM*	-25.7%	-7.2%	20.6µM*
miR-21 FLuc	-33.5%	19.1%	17.2%	-61.8%	-0.8%	12.6%
TDP1 block	4.8%	1.9%	-1.9%	8.4%	3.1%	-3.2%
DT40 TDP1 CPT	?	5.17µM*	?	-16.7%	2.5%	?

3 structures already listed, arranged by number of heavy atoms, low to high:
(10) COc1ccc(Nc2nc3ccc(OC)cc3s2)cc1
(11) CCOC(=O)c1[nH]c2ccc(OC)cc2c1NC(=O)OC
(8) CCOC(=O)c1[nH]c2ccc(OC)cc2c1NC(=S)N1CCN(c2ccccc2OC)CC1

Compound	10	11	8
uPA generation	-8.0%	3.2%	-16.0%
DT40 TDP1 no CPT	-25.7%	-7.2%	8.2µM*
miR-21 FLuc	-61.8%	-0.8%	19.1%
TDP1 block	8.4%	3.1%	1.9%
DT40 TDP1 CPT	-16.7%	2.5%	5.17µM*

The list goes on.
(13) CCc1ccccc1NC(=O)N1C2CCCC1CC(NC(C)=O)C2 (stereo unspecified)
(14) COc1cc(CNc2nc3ccccc3s2)cc(OC)c1OC
(15) COc1ccccc1C(=O)Nc1nc2ccccc2s1
(16) COc1ccc2nc(NC(=O)c3ccccc3C(=O)O)sc2c1
(17) COc1ccc(C(=O)Nc2nc3ccccc3s2)c(OC)c1
(18) COc1ccc2sc(NCc3ccccc3)nc2c1

Compound	13	14	15	16	17	18
uPA generation	3.1%	5.1%	?	-15.4%	-18.1%	-15.6%
DT40 TDP1 no CPT	-0.5%	23.1µM*	10.3µM*	2.5%	20.6µM*	-9.6%
miR-21 FLuc	2.2%	7.9%	?	-9.0%	?	-56.6%
TDP1 block	2.1%	.	.	.	1.5%	4.4%
DT40 TDP1 CPT	-13.3%	-0.2%	16.4µM*	-2.1%	?	-11.8%

(19) CCCC(=O)Nc1nc2ccc(NC(=O)c3ccccc3F)cc2s1
(20) O=C(Cn1cc2c(n1)CCCC2)N1CCCC1
(21) COc1cccc2[nH]c(C(=O)NN)c(N)c12
(22) COc1ccc(C(=O)Nc2nc3ccc(OC)cc3s2)cc1
(23) COc1ccc(CNc2ccc(C)c(C)c2)cc1
(24) COc1cc(CNc2ccc(C)c(C)c2)cc(OC)c1OC

Compound	19	20	21	22	23	24
uPA generation	-6.5%	5.3%	-1.0%	?	1.7%	?
DT40 TDP1 no CPT	2.06µM*	-9.9%	16.4µM*	?	-1.6%	1.3µM*
miR-21 FLuc	-3.2%	-1.4%	11.7%	-17.4%	-47.2%	-53.0%
TDP1 block	3.0%	6.5%	4.7%	4.1%	5.9%	?
DT40 TDP1 CPT	1.84µM*	4.3%	?	?	0.3%	2.06µM*

(25) COc1ccc2nc(NC(=O)c3cccc(-c4cc5ccccc5oc4=O)c3)sc2c1
(26) COc1cc2[nH]c(C(=O)NN)c(N)c2cc1OC
(27) COc1ccccc1C(=O)Nn1c(C)nc2ccccc2c1=O
(28) O=C(CCc1nc2ccccc2c(=O)[nH]1)N1CCN(S(=O)(=O)c2cccc([N+](=O)[O-])c2)CC1
(29) O=[N+]([O-])c1cccc(S(=O)(=O)c2ccc(NCCOCCO)c([N+](=O)[O-])c2)c1
(30) CC12CC(O)C3C(CCC4=CC(=O)CCC43C)C1CCC2=CCO (stereo unspecified)
(31) CCOC(=O)c1[nH]c2ccccc2c1NC(=O)c1ccccc1OC
(32) CSc1ncccc1C(=O)Nc1nc2ccc(Oc3ccccc3)cc2s1

Compound	25	26	27	28	29	30	31	32
uPA generation	2.0%	.	-7.6%	4.3%	-3.8%	3.3%	.	-9.2%
DT40 TDP1 no CPT	16.4µM*	.	?	-25.4%	?	?	14.6µM*	?
miR-21 FLuc	-50.1%	-0.7%	-1.3%	.	-1.3%	.	25.7%	-44.6%
TDP1 block	-2.7%	9.5%	.	5.1%[0.505 µM]	.	.	8.8%	3.2%
DT40 TDP1 CPT	16.4µM*	.	10.3µM*	-29.4%	-6.5%	?	23.1µM*	20.6µM*
